Laboratory results as given in BindingDB's records for doi:10.1016/j.bmc.2007.04.050 (Universitat De Barcelona, 2007).

Target: 3-alpha-hydroxysteroid dehydrogenase AKR1C9 (Rattus norvegicus) (UniProt P23457)
Assay: Inhibition of rat liver 3-alpha-HSD assessed as 5-beta-dihydrocortisone reduction

**Q.** With CC(C)Cc1ccc([C@H](C)C(=O)O)cc1 [(RS)-ibuprofen] as the molecule, how does the IC50 read?
**A.** The IC50 was 100 µM.
